Results reported in US20260382577A1, “ORAL PHARMACEUTICAL PREPARATION COMPRISING SODIUM-GLUCOSE COTRANSPORTER-2 INHIBITOR AND ANGIOTENSIN II RECEPTOR BLOCKER” (published 2026).

How the values were obtained:
[1] = cited from earlier work
A549 cells = assay: Cell survival rate (MTT) in A549 cells; details: up to 25 μM, 24 and 48 hours
MDCK cells = assay: Cell survival rate (MTT) in MDCK cells; details: up to 25 μM, 24 and 48 hours
Sprague-Dawley rats = assay: 4-week repeated oral administration toxicity in rats; details: 4 weeks repeated oral
ACE mRNA = ACE mRNA expression (RT-PCR) in LPS inflammation-induced H9c2 cells; details: for mRNA expression of ACE: single substance
[2] = system: angiotensin converting enzyme (ACE); assay: ACE protein expression (Human ACE ELISA) in LPS inflammation-induced H9c2 cells
[3] = Single oral administration pharmacokinetics in beagle dogs; details: for equivalence: judgment criterion log 0.8 to 1.25; for drug-drug interaction (DDI): single versus combined administration
[4] = Drug-drug compatibility test, accelerated storage 4 weeks
[5] = Phase 1 clinical trial, pharmacokinetic interaction; details: Dapagliflozin 10 mg in the presence of Telmisartan 80 mg
[6] = low concentration 2.5 μM to 10 μM
[7] = Acceleration 1 week, 40±2 °C/75±5% RH
[8] = Acceleration 2 week, 40±2 °C/75±5% RH
[9] = Acceleration 3 week, 40±2 °C/75±5% RH
[10] = Acceleration 4 week, 40±2 °C/75±5% RH

SMILES: CCCc1nc2c(C)cc(-c3nc4ccccc4n3C)cc2n1Cc1ccc(-c2ccccc2C(=O)O)cc1
- difference in solubility by pH [1]: ≥ 100 times
- dissolution interference ([1]; conventional reports): interfering with the dissolution of SGLT-2 inhibitors, particularly Dapagliflozin
- cell survival rate (A549 cells): no effect on cell survival rate
- cell survival rate (MDCK cells): no effect on cell survival rate
- body weight gain (Sprague-Dawley rats): a tendency for inhibiting weight gain
- mRNA expression (ACE) (ACE mRNA; 25 μM): mostly inhibited
- mRNA expression inhibition effect (ACE) (ACE mRNA; all treatment concentrations): superior to that of olmesartan at all treatment concentrations
- mRNA expression of ACE (ACE mRNA; 15 μM high concentration): decrease below the normal level
- mRNA expression of ACE (ACE mRNA; [6]): did not decrease to a normal level
- ACE expression inhibition effect ([2]; 25 μM): the best
- ACE expression inhibition effect ([2]; all treatment concentrations (10, 25, 50)): superior to that of olmesartan at all treatment concentrations
- difference in AUCall between single and combined administration group ([3]; Telmisartan): 1.0 times
- equivalence [3]: equivalent
- drug-drug interaction (DDI) [3]: no drug-drug interaction (DDI)
- property [4, 7]: suitable
- property [4, 8]: suitable
- property [4, 9]: suitable
- property [4, 10]: suitable
- property ([4]; Initial): suitable

SMILES: OC[C@H]1O[C@@H](c2ccc(Cl)c(Cc3ccc(O[C@H]4CCOC4)cc3)c2)[C@H](O)[C@@H](O)[C@@H]1O
- mRNA expression of ACE (ACE mRNA; 15 μM high concentration): decrease below the normal level
- mRNA expression of ACE (ACE mRNA; [6]): did not decrease to a normal level
- property [4, 7]: suitable
- property [4, 8]: suitable
- property [4, 9]: unsuitable
- property [4, 10]: unsuitable
- property ([4]; Initial): suitable

SMILES: CCCCC(=O)N(Cc1ccc(-c2ccccc2-c2nnn[nH]2)cc1)[C@H](C(=O)O)C(C)C
- property [4, 7]: suitable
- property [4, 8]: suitable
- property [4, 9]: suitable
- property [4, 10]: suitable
- property ([4]; Initial): suitable

SMILES: CCOc1ccc(Cc2cc([C@@H]3O[C@H](CO)[C@@H](O)[C@H](O)[C@H]3O)ccc2Cl)cc1
- GLU (Sprague-Dawley rats): decreased
- mRNA expression of ACE (ACE mRNA; 15 μM high concentration): decrease below the normal level
- mRNA expression of ACE (ACE mRNA; [6]): did not decrease to a normal level
- 90% confidence interval of AUC T/R ratio [5]: 0.97 to 1.03
- 90% confidence interval of Cmax T/R ratio [5]: 0.93 to 1.12
- AUC T/R ratio ([5]; repeated oral, humans): 1.00 times
- Cmax T/R ratio ([5]; repeated oral, humans): 1.02 times
- difference in AUCall between single and combined administration group ([3]; Dapagliflozin): 1.0 times
- equivalence [3]: equivalent
- drug-drug interaction (DDI) [3]: no drug-drug interaction (DDI) at all
- property [4, 7]: suitable
- property [4, 8]: suitable
- property [4, 9]: unsuitable
- property [4, 10]: unsuitable
- property ([4]; Initial): suitable

SMILES: Cc1ccc([C@@H]2O[C@H](CO)[C@@H](O)[C@H](O)[C@H]2O)cc1Cc1ccc(-c2ccc(F)cc2)s1
- property [4, 7]: unsuitable
- property [4, 8]: unsuitable
- property [4, 9]: unsuitable
- property [4, 10]: unsuitable
- property ([4]; Initial): suitable

SMILES: CCCc1nc(C(C)(C)O)c(C(=O)O)n1Cc1ccc(-c2ccccc2-c2nnn[nH]2)cc1
- cell survival rate (A549 cells): no effect on cell survival rate
- cell survival rate (MDCK cells): no effect on cell survival rate
- property [4, 7]: suitable
- property [4, 8]: suitable
- property [4, 9]: suitable
- property [4, 10]: suitable
- property ([4]; Initial): suitable
